pIC50: −log10 of the molar value.

Chains of the proteins cited; added tags and fusions are not shown. Lines headed by an entry give the natural chain unless they say otherwise; changes in a name come on top.
UniProt Q99572: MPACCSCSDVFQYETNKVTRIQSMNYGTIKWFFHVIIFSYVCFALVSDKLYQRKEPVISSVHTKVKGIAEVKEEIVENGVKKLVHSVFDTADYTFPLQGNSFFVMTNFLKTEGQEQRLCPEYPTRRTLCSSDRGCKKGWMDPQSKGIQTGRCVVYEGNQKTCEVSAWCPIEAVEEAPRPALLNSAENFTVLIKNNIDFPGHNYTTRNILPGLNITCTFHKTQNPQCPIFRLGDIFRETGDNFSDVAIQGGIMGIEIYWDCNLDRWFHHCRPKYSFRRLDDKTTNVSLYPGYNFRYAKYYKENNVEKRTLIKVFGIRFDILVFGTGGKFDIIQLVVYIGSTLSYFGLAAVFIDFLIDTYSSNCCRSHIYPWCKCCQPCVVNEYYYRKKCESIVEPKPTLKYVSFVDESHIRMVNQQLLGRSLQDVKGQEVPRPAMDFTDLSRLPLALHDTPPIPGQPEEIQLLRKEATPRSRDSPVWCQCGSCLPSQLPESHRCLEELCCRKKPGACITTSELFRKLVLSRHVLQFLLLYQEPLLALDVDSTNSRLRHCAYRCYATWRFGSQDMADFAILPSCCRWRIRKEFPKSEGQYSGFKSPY

This passage reports IC50 results from ChEMBL document CHEMBL5223134, “Pipeline Impact of Radiolabeled Compounds in Drug Discovery and Development” (ACS Med Chem Lett, 2022).

Assay [1] concerns the target T1, P2X purinoceptor 7 (Mus musculus, UniProt Q9Z1M0).
T1 sequence (Q9Z1M0 whole entry): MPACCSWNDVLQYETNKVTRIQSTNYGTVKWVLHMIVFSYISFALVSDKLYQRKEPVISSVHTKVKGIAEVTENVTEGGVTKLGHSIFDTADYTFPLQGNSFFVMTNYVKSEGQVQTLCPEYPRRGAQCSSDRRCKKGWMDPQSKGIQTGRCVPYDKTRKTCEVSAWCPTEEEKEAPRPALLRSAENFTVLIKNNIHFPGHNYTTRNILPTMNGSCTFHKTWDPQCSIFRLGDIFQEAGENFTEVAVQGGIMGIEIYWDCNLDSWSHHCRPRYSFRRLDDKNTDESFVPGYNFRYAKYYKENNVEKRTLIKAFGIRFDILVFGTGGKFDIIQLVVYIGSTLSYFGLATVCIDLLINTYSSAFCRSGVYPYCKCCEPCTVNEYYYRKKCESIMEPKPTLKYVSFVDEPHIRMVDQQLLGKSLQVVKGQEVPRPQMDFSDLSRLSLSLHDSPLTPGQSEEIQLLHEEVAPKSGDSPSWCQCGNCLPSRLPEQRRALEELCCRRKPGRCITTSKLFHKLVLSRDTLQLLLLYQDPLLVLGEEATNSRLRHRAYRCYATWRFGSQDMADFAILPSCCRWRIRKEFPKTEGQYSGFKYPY
The assay can be described thus: Antagonist activity against mouse P2X7R expressed in human 1321N1 cell membrane incubated for 1 hrs by radioligand binding assay. It is filed as cell membranes.

Assay [2] addresses P2X purinoceptor 7 (Homo sapiens, UniProt Q99572). The assay can be described thus: Antagonist activity against human P2X7R expressed in human 1321N1 cell membrane incubated for 1 hrs by radioligand binding assay. It counts as cell membranes.

As to `[3H]c1ccc([C@H](C)N/C(=N/C#N)Nc2cccc3ncccc23)cc1`, the results for the pIC50 in assay [1] and in assay [2] were 8.05 and 7.96, respectively.

Broadly, the pIC50 is −log10 of the IC50, conventionally taken in molar units. The low end stands for a large IC50, the high end for a small IC50.
